Key:
[1] = target: T1, Muscarinic acetylcholine receptor M1 (Homo sapiens, UniProt P11229); assay: Displacement of [3H]NMS from human muscarinic M1 receptor expressed in CHOK1 cells by microplate scintillation counting; format: cell-based, CHO-K1
[2] = target: T2, Muscarinic acetylcholine receptor M3 (Homo sapiens, UniProt P20309); assay: Displacement of [3H]NMS from human muscarinic M3 receptor expressed in CHOK1 cells by microplate scintillation counting; format: cell-based, CHO-K1
[3] = target: T1, Muscarinic acetylcholine receptor M1; assay: Binding affinity to muscarinic M1 receptor
[4] = target: T3, Muscarinic acetylcholine receptor M2 (Homo sapiens, UniProt P08172); assay: Binding affinity to muscarinic M2 receptor
[5] = target: T3, Muscarinic acetylcholine receptor M2; assay: Displacement of [3H]NMS from human muscarinic M2 receptor expressed in CHOK1 cells by microplate scintillation counting; format: cell-based, CHO-K1
[6] = target: T2, Muscarinic acetylcholine receptor M3

Amino acid sequences for entries named in this document (tags omitted). A change or cut given only in a name is not applied to a line headed by its entry.
UniProt P11229: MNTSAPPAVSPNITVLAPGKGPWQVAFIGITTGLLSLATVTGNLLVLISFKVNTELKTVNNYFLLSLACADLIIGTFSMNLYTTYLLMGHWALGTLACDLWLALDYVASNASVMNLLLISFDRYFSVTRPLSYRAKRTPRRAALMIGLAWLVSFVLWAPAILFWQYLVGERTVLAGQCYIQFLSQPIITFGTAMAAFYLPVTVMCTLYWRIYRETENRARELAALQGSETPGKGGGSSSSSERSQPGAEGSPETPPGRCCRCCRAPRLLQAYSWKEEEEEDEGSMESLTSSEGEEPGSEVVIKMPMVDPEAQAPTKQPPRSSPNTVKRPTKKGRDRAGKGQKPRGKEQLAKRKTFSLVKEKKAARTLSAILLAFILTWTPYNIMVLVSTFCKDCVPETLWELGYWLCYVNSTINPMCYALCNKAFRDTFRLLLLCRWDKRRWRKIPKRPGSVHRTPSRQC
UniProt P20309, whole entry: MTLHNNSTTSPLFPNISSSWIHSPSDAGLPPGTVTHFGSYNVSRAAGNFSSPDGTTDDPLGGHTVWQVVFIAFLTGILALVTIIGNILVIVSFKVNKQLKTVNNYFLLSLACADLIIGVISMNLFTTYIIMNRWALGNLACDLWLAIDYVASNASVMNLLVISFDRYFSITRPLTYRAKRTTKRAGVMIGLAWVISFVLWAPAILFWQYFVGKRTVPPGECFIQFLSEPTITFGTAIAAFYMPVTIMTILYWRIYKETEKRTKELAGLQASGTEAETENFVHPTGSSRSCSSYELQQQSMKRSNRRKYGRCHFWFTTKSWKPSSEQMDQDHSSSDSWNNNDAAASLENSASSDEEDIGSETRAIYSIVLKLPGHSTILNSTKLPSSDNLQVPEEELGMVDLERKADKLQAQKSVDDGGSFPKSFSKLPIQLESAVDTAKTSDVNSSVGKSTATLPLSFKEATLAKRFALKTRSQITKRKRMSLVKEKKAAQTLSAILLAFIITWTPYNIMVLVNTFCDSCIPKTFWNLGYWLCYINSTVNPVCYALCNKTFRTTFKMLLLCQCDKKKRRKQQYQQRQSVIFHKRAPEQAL
UniProt P08172, whole entry: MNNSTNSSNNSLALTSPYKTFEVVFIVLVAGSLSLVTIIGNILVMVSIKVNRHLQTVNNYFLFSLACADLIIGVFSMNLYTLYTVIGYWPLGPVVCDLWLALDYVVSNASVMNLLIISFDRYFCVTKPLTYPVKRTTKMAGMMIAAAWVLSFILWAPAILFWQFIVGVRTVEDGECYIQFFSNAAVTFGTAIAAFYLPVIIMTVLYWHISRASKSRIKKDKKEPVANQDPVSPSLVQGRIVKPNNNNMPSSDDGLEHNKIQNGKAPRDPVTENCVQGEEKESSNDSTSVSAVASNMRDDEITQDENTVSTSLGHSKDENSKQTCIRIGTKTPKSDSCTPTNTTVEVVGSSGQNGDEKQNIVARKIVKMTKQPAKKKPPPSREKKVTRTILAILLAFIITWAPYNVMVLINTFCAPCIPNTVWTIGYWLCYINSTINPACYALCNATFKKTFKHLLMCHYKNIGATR

`CC(C)[N+]1(C)C2CCC1CC(OC(=O)C(CO)c1ccccc1)C2.O.[Br-]` (stereo unspecified) was tested, and the IC50 [1] was 2.65 nM, the IC50 [2] was 2.07 nM and the Ki [3] was 1.51 nM. The Ki [4] was 1.02 nM, the IC50 [5] was 2.24 nM and the Ki [6] was 0.83 nM.

— ChEMBL document CHEMBL1152978 (J Med Chem, 2009)
